According to ChEMBL document CHEMBL6074718, “Discovery and biological evaluation of potent 2-trifluoromethyl acrylamide warhead-containing inhibitors of protein disulfide isomerase” (Eur J Med Chem, 2025):

Experiments:
Platelet [1] = assay: Antiplatelet aggregation activity in human Platelet assessed as inhibition of thrombin- induced aggregation preincubated for 3 mins followed by thrombin addition by turbidimetric aggregometry; format: functional, cell-based
[2] = Selectivity ratio of IC50 for inhibition of recombinant PDIA6 (unknown origin) to IC50 for inhibition of recombinant PDI (unknown origin)
Platelet [3] = assay: Antiplatelet aggregation activity in human Platelet assessed as inhibition of collagen- induced aggregation preincubated for 3 mins followed by collagen addition by turbidimetric aggregometry; format: functional, cell-based
Platelet [4] = assay: Antiplatelet aggregation activity in human Platelet assessed as inhibition of U46619- induced aggregation preincubated for 3 mins followed by U46619 addition by turbidimetric aggregometry; format: functional, cell-based
[5] = Selectivity ratio of IC50 for inhibition of recombinant PDIA3 (unknown origin) to IC50 for inhibition of recombinant PDI (unknown origin)

Ratio IC50 [2]: 14.8
Ratio IC50 [5]: 3.2
SMILES: C=C(C(=O)Nc1ccc(C(=O)c2ccccc2)cc1)C(F)(F)F
Activity (Platelet [1]): Dose-dependent-effect
Activity (Platelet [3]): Dose-dependent-effect
Activity (Platelet [4]): Dose-dependent-effect
